Species: Homo sapiens
Assay: Selectivity ratio of Ki for human mu opioid receptor to Ki for human kappa opioid receptor

Oc1ccc2c(c1)[C@@]13CCCC[C@H]1[C@@H](C2)N(CC1CCC1)CC3 [BUTORPHAN]
Ratio Ki: 2.9
